We go through three molecules from patent US20200255519A1 (University of California, published 2020).

Protein sequences, listed by entry. Tags and fused reporters are not part of them. Residues count along the entry.
UniProt Q07817, 2-215: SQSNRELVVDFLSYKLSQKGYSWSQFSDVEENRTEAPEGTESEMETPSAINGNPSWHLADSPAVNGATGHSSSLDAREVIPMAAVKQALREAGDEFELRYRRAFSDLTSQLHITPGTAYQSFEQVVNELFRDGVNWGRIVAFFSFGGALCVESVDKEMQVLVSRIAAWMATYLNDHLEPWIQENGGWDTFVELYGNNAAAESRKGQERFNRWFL

Numbering of substitutions follows the chain as printed.

Usually Kd stands for the constant that tells how readily two partners part at equilibrium. As usually defined, the koff is a measure of how fast the partners let go of each other. A word on the kon: it is a measure of how fast the partners come together.

In experiment [1] the target is T1, BCL-xL/ABT-737 complex: biotinylated BCL-xL (residues 2-215) in the presence of 1 µM ABT-737 (human, UniProt Q07817 2-215, biotin on the N-terminal AviTag; small molecule ABT-737 bound non-covalently).
T1 construct: Same protein as m1; not shown: N-terminal tags (pMCSG7 vector tag used for Ni-NTA, AviTag, TEV cut site)
The experiment in a line: BLI (Octet), biotinylated BCL-xL on streptavidin sensor, Fab as analyte, 1 µM ABT-737, global 1:1 fit. On the technique in general: BLI is a label-free optical method that tracks binding on a fibre tip over time.

Experiment [2] concerns the target T1, BCL-xL/ABT-737 complex: biotinylated …. Description: BLI (Octet).

B1: Fab AZ3 (Fab)
heavy: EISEVQLVESGGGLVQPGGSLRLSCAASGFNIYYSYMHWVRQAPGKGLEWVASISPYSSYTSYADSVKGRFTISADTSKNTAYLQMNSLRAEDTAVYYCARYGYSYYYYGALDYWGQGTLVTVSSASTKGPSVFPLAPSSKSTSGGTAALGCLVKDYFPEPVTVSWNSGALTSGVHTFPAVLQSSGLYSLSSVVTVPSSSLGTQTYICNVNHKPSNTKVDKKVEPKSCDKTHTGGSHHHHHH
light: SDIQMTQSPSSLSASVGDRVTITCRASQSVSSAVAWYQQKPGKAPKLLIYSASSLYSGVPSRFSGSRSGTDFTLTISSLQPEDFATYYCQQGWSGPWLITFGQGTKVEIKRTVAAPSVFIFPPSDSQLKSGTASVVCLLNNFYPREAKVQWKVDNALQSGNSQESVTEQDSKDSTYSLSSTLTLSKADYEKHKVYACEVTHQGLSSPVTKSFNRGECGGSDYKDDDDK
notes: Purified Fab; graft limits inferred
Turning to B1, in experiment [1], the Kd was found to be 9.5 nM, the off-rate (koff) came to 0.00209 s⁻¹ and the association rate constant (kon) worked out at 220000 M⁻¹ s⁻¹.

B2: Fab AZ1 (Fab)
heavy: EISEVQLVESGGGLVQPGGSLRLSCAASGFNLSYSSMHWVRQAPGKGLEWVASISPYSSYTSYADSVKGRFTISADTSKNTAYLQMNSLRAEDTAVYYCARGWVGMDYWGQGTLVTVSSASTKGPSVFPLAPSSKSTSGGTAALGCLVKDYFPEPVTVSWNSGALTSGVHTFPAVLQSSGLYSLSSVVTVPSSSLGTQTYICNVNHKPSNTKVDKKVEPKSCDKTHTGGSHHHHHH
light: SDIQMTQSPSSLSASVGDRVTITCRASQSVSSAVAWYQQKPGKAPKLLIYSASSLYSGVPSRFSGSRSGTDFTLTISSLQPEDFATYYCQQYYWGFPSLFTFGQGTKVEIKRTVAAPSVFIFPPSDSQLKSGTASVVCLLNNFYPREAKVQWKVDNALQSGNSQESVTEQDSKDSTYSLSSTLTLSKADYEKHKVYACEVTHQGLSSPVTKSFNRGECGGSDYKDDDDK
notes: Purified Fab from E. coli; The scaffold tags are kept
Take B2: in experiment [1], the Kd was 3 nM, the koff amounted to 0.0004 s⁻¹ and the association rate constant (kon) is 130000 M⁻¹ s⁻¹.

B3: Fab AZ2 (Fab)
heavy: EISEVQLVESGGGLVQPGGSLRLSCAASGFNIYSYYMHWVRQAPGKGLEWVAYISPYYSYTSYADSVKGRFTISADTSKNTAYLQMNSLRAEDTAVYYCARGYPWYGMDYWGQGTLVTVSSASTKGPSVFPLAPSSKSTSGGTAALGCLVKDYFPEPVTVSWNSGALTSGVHTFPAVLQSSGLYSLSSVVTVPSSSLGTQTYICNVNHKPSNTKVDKKVEPKSCDKTHTGGSHHHHHH
light: B2 light with Y92V, Y93S, G95A, F96Y, S98Y, F100I
notes: as for B1
With B3, the “fold selectivity for the ABT-737-bound form of BCL-xL over the apo form” value in experiment [2] is > 2000 fold. In experiment [1], the Kd came to 2.4 nM, the koff stood at 0.00026 s⁻¹ and the on-rate (kon) came out at 110000 M⁻¹ s⁻¹.
